Antibody variant affinities, Ab-14 light chain, assay 1

From the AlphaSeq antibody data of Engelhart et al. 2022 (doi:10.1038/s41597-022-01779-4), copy in the FLAb collection.

Antigen: PDVDLGDISGINAS, a 14-residue peptide of the SARS-CoV-2 spike HR2 region.

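The starting antibody came from a phage panning campaign against this peptide. Library AAYL50 holds single substitutions and randomly drawn double and triple substitutions in the CDRs. AlphaSeq pools MATa yeast showing the antibodies with MATalpha yeast showing the peptide. Pairs that bind mate more often; barcode pairs of the diploids are counted by sequencing. The ratio of observed to expected reads was calibrated, replicate by replicate, on BCL2-family standards whose Kd was known from biolayer interferometry. Mating was done three times.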

Ab-14 is the parent antibody, in scFv form: VH, then a (GGGGS)3 linker, then VL. The heavy chain is unchanged in all variants.
VH: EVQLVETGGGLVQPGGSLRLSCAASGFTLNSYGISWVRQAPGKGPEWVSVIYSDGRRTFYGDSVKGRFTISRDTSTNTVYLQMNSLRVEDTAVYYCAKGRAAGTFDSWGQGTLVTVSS
VL: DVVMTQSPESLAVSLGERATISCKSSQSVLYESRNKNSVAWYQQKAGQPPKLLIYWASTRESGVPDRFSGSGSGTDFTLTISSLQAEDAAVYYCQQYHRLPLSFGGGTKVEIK

Changes read parent residue, position, new residue, counted from the first residue of the VL shown.
This list gathers variants with a substitution at Q96 (VL, numbered from residue 1).
Affinities are written as log10 Kd with Kd in nM; a lower number is a better binder.
The mean shown is taken over the replicates in which the pair was detected.
Where no diploid with the target was found in any replicate, the entry reads "nd": below detection, most likely a poor binder, though not proof of it.
Empty control strains, which show no peptide, gave a signal in 18% of pairings with library AAYL50; the median was 4.19 and 95% of these signals were weaker than 2.99. No background was subtracted.

For Q96S/R99L/L100A, the assay gave nd (0 of 3 replicates). With Y31K/S38G/Q96D the result was 4.68 (3 of 3 replicates). Variant Q27H/R34Y/Q96R gave nd (0 of 3 replicates). With R34L/V39Q/Q96S the result was 3.73 (1 of 3 replicates). Variant R34P/Q96K/R99H showed 0.79 (3 of 3 replicates). For Q96P/H98I/L100Y, the assay gave 4.26 (2 of 3 replicates). Variant K24S/Q96R/L102F gave 1.52 (3 of 3 replicates).

With S25K/Q96M the result was nd (0 of 3 replicates). With S25D/T59D/Q96R the result was nd (0 of 3 replicates). Variant L30E/Q96F/L100S gave 1.70 (3 of 3 replicates). Variant Y31K/Q96I/P101Q gave nd (0 of 3 replicates). With S25N/K36R/Q96P the result was nd (0 of 3 replicates). Variant K24W/N37F/Q96M gave nd (0 of 3 replicates). With K24T/Q96A/H98D the result was 3.38 (3 of 3 replicates).

With S58K/T59S/Q96I the result was nd (0 of 3 replicates). Variant K24Y/Q96F/S103Y gave nd (0 of 3 replicates). Variant V39C/A40N/Q96W gave nd (0 of 3 replicates). Variant N37C/Q96E/P101Q showed 2.82 (1 of 3 replicates). Variant S28P/Q96I/S103Q gave 1.69 (3 of 3 replicates). Variant N35E/Q95S/Q96T showed 1.13 (3 of 3 replicates). For Y31Q/E32M/Q96A, the assay gave 2.78 (3 of 3 replicates).

Variant Q95V/Q96M/L100P showed 4.25 (1 of 3 replicates). Variant A40R/Q96S showed 4.76 (1 of 3 replicates). Variant S38Q/Q96R showed nd (0 of 3 replicates). Variant E61Y/Q96W/L100T showed 5.36 (1 of 3 replicates). For E61D/Q96I/Y97S, the assay gave 1.44 (3 of 3 replicates). Variant Y31G/Q96L gave 4.77 (3 of 3 replicates). Variant V29T/Y31C/Q96W gave 3.70 (3 of 3 replicates).

Variant V39R/Q95A/Q96K gave 5.01 (3 of 3 replicates). Variant S26L/W56N/Q96I showed 1.16 (3 of 3 replicates). Variant Y31C/Q96T/R99W showed 1.64 (3 of 3 replicates). Variant S25W/Q96Y/L100K gave 3.27 (1 of 3 replicates). Variant K36N/Q95T/Q96Y gave nd (0 of 3 replicates).

Extract of 5 entries:

changes	log10 Kd (nM), mean	replicates with signal
V39C/A40N/Q96W	nd	0/3
A40R/Q96S	4.76	1/3
K24Y/Q96F/S103Y	nd	0/3
K36N/Q95T/Q96Y	nd	0/3
Q95V/Q96M/L100P	4.25	1/3